Earlier results in publication PMC9820559, “Investigation of the Fuzzy Complex between RSV Nucleoprotein and Phosphoprotein to Optimize an Inhibition Assay by Fluorescence Polarization” (International Journal of Molecular Sciences, 2022).

Protein sequences, listed by entry. Tags and fused reporters are not part of them. Lines headed by an entry give the natural chain unless they say otherwise; changes in a name come on top.
UniProt P03421: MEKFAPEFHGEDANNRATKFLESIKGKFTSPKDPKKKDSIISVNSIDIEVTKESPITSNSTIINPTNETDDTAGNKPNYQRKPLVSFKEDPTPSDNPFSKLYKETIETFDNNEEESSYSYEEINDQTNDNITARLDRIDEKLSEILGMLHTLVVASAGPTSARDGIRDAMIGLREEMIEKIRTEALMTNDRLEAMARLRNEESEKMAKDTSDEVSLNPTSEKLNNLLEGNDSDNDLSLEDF

Assays:
[1] = biological target: RSV phosphoprotein P2 peptide C-terminal 2-mer (Human respiratory syncytial virus) (UniProt P03421); experiment: NMR; details: cited from earlier work
[2] = biological target: RSV phosphoprotein P12 peptide C-terminal 12-mer (Human respiratory syncytial virus) (UniProt P03421); experiment: NMR; details: cited from earlier work

Substance: RSV nucleoprotein NTD (from UniProt P03418)
- Kd [1]: 4.2 mM
- Kd [2]: 0.054 mM
